System: P. falciparum Dd2 (PfLuc) line expressing firefly luciferase, asexual blood stage
Experiment: microbe, parasite or virus in culture
Format: cell-based
Settings: Plasmodium falciparum, DD2, 96 h, read-out: average potency at 96 h in the luciferase assay

Structure (SMILES): CCC[C@@H]1C[C@@H](C(=O)N[C@@H]([C@H]2O[C@H](SC)[C@H](O)[C@@H](O)[C@H]2O)[C@H](C)Cl)N(C)C1 [clindamycin, reference compound]
- IC50: 5.2 ± 1.25 nM

Source: article PMC7155171, “Probing the Open Global Health Chemical Diversity Library for Multistage-Active Starting Points for Next-Generation Antimalarials” (ACS Infectious Diseases, 2020)
